Data taken from PubChem BioAssay AID651582 (Sanford-Burnham Center for Chemical Genomics, 2012).
The list shows a part of the results, in another mix than the full data. Some of these compounds have results that are not shown, active ones among them. Calls of active or inactive are those of the source.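 How the source made its calls: active means pattern-corrected inhibition of lipid staining of at least 50% with the nuclear-stain viability signal not falling by more than 50%; inactive means the rest, inconclusive results apart.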

assay: TAG lipid buildup reduction in H9c2 cells – cell-based, uHTS, fluorescence, primary screen (AID 651582); conditions: Nile Red lipid (TAG) fluorescence, at 12.5 µM, active compounds read high, cells loaded with 200 µM oleic acid;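 further: 0% = DMSO wells and 100% = triacsin C control wells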

SMILES | inhibition
Cc1ccccc1C(=O)NCC1(N2CCCCC2)CCCCC1 | inactive: -10.9%
C=CCN1CCN(CCOC(=O)C(O)(c2ccccc2)c2ccccc2)CC1 | inactive: 2.42%
O=C(NCC1(N2CCCCC2)CCCCC1)c1cc([N+](=O)[O-])ccc1Cl | inactive: -8.16%
CCN(CC)CC(C)C(C)OC(=O)C(O)(c1ccccc1)c1ccccc1 (stereo unspecified) | inactive: 1.29%
CC(C)N1C(=O)CC2(CCN(CCOC(=O)C(O)(c3ccccc3)c3ccccc3)CC2)C1=O | inactive: -1.04%
O=C(OC1CN2CCC1CC2)C(CO)(c1ccccc1)c1ccccc1 (stereo unspecified) | inactive: 5.37%
C=C(C)C#CC(O)(C(=O)OC1CCN(C)CC1)c1ccccc1 (stereo unspecified) | inactive: 7.25%
COc1ccc(Br)c(C(=O)NCC2(N3CCCCC3)CCCCC2)c1 | inactive: 4.41%
O=C(OCCN1CCCC1)C(O)(c1ccccc1)c1ccccc1 | inactive: -5.05%
CN(C)c1cccc(C(=O)NCC2(N(C)C)CCCCC2)c1 | inactive: 3.19%
COc1cccc(C(=O)NCC2(N3CCCCC3)CCCCC2)c1 | inactive: -7.11%
